This is an account of results in patent US20220177511A1, “SERIES OF HALOGENATED TETRACYCLIC TRITERPENE DERIVATIVES AND THEIR PREPARATION AND APPLICATION” (SHANGHAI KING-X BIOTECH CO., LTD, priority 2019, published 2022).

This data set can be described thus: Solubility test in water and FaSSIF. In kind it is physicochemical. The following applies: 37° C., up to 24 hours.

In the case of “1-(2-(((2aR,3R,4S,5aS,5bS,7S,7aR,11aR,12aS)-9,9-difluoro-4-hydroxy-3-((2S,5S)-5-(2-hydroxypropan-2-yl)-2-methyltetrahydrofuran-2-yl)-2a,5a,8,8-tetramethyltetradecahydro-1H,12H-cyclopenta[a]cyclopropa[e]phenanthren-7-yl)oxy)-2-oxoethyl)guanidinium Bromide [Compound 2-5]”, the Solubility was 2.41 mg/mL (FaSSIF (pH 6.5)) and 1.31 mg/mL (Water).
As to “2-(2-(((2aR,3R,4S,5aS,5bS,7S,7aR,11aR,12aS)-9,9-difluoro-4-hydroxy-3-((2S,5S)-5-(2-hydroxypropan-2-yl)-2-methyltetrahydrofuran-2-yl)-2a,5a,8,8-tetramethyltetradecahydro-1H,12H-cyclopenta[a]cyclopropa[e]phenanthren-7-yl)oxy)-2-oxoethoxy)ethan-1-aminium Chloride [Compound 2-7]”, the Solubility (FaSSIF (pH 6.5)) is recorded as 1.23 mg/mL and the Solubility (Water) is 0.79 mg/mL.
With “2-(((2aR,3R,4S,5aS,5bS,7S,7aR,11aR,12aS)-9,9-difluoro-4-hydroxy-3-((2S,5S)-5-(2-hydroxypropan-2-yl)-2-methyltetrahydrofuran-2-yl)-2a,5a,8,8-tetramethyltetradecahydro-1H,12H-cyclopenta[a]cyclopropa[e]phenanthren-7-yl)oxy)-N-methyl-2-oxoethan-1-aminium Chloride [Compound 2-6]”, the Solubility is 1.69 mg/mL (FaSSIF (pH 6.5)) and 0.89 mg/mL (Water).
The like results for “3-(((2aR,3R,4S,5aS,5bS,7S,7aR,11aR,12aS)-9,9-difluoro-4-hydroxy-3-((2S,5S)-5-(2-hydroxypropan-2-yl)-2-methyltetrahydrofuran-2-yl)-2a,5a,8,8-tetramethyltetradecahydro-1H,12H-cyclopenta[a]cyclopropa[e]phenanthren-7-yl)oxy)-3-oxopropan-1-aminium Chloride [Compound 2-1]” were, in that order, 2.18 mg/mL and 1.13 mg/mL.
The compound `Br.CC(C)(O)C1CCC(C)(C2C(O)CC3(C)C4CC(OC(=O)CNC(=O)C(N)CS)C5C(C)(C)C(F)(F)CCC56CC46CCC23C)O1` [Compound 2-32, (R)-1-((2-(((2aR,3R,4S,5aS,5bS,7S,7aR,11aR,12aS)-9,9-difluoro-4-hydroxy-3-((2S,5S)-5-(2-hydroxypropan-2-yl)-2-methyltetrahydrofuran-2-yl)-2a,5a,8,8-tetramethyltetradecahydro-1H,12H-cyclopenta[a]cyclopropa[e]phenanthren-7-yl)oxy)-2-oxoethyl)amino)-3-mercapto-1-oxopropan-2-aminium bromide] had a Solubility (Water) of 1.31 mg/mL.
For “(R)-2-(2-(((2aR,3R,4S,5aS,5bS,7S,7aR,11aR,12aS)-9,9-difluoro-4-hydroxy-3-((2S,5S)-5-(2-hydroxypropan-2-yl)-2-methyltetrahydrofuran-2-yl)-2a,5a,8,8-tetramethyltetradecahydro-1H,12H-cyclopenta[a]cyclopropa[e]phenanthren-7-yl)oxy)-2-oxoethyl)pyrrolidin-1-ium Chloride [Compound 2-4]”, the Solubility stood at 2.5 mg/mL (FaSSIF (pH 6.5)) and 1.22 mg/mL (Water).
On to “(S)-1-(((2aR,3R,4S,5aS,5bS,7S,7aR,11aR,12aS)-9,9-difluoro-4-hydroxy-3-((2S,5S)-5-(2-hydroxypropan-2-yl)-2-methyltetrahydrofuran-2-yl)-2a,5a,8,8-tetramethyltetradecahydro-1H,12H-cyclopenta[a]cyclopropa[e]phenanthren-7-yl)oxy)-1-oxopropan-2-aminium Chloride [Compound 2-17]”, for which the Solubility was found to be 2.39 mg/mL (FaSSIF (pH 6.5)) and 0.88 mg/mL (Water).
For “(S)-6-((2-(((2aR,3R,4S,5aS,5bS,7S,7aR,11aR,12aS)-9,9-difluoro-4-hydroxy-3-((2S,5S)-5-(2-hydroxypropan-2-yl)-2-methyltetrahydrofuran-2-yl)-2a,5a,8,8-tetramethyl tetradecahydro-1H,12H-cyclopenta[a]cyclopropa[e]phenanthren-7-yl)oxy)-2-oxoethyl)amino)-6-oxohexane-1,5-diaminium Bromide [Compound 2-30]” the same measures were 5.95 mg/mL and 1.9 mg/mL.

A word on the Solubility: it is the dissolved amount per volume that the medium holds. Read a high Solubility as much dissolved substance.
